Values quoted from earlier work in US20240011094A1, “METHODS FOR DIAGNOSIS AND TREATING POLYCYSTIC OVARY SYNDROME (PCOS)” (INSTITUT NATIONAL DE LA SANTÉ ET DE LA RECHERCHE MÉDICALE, priority 2020, published 2024).

Amino acid sequences for entries named in this document (tags omitted). A change or cut given only in a name is not applied to a line headed by its entry.
UniProt Q3URK3: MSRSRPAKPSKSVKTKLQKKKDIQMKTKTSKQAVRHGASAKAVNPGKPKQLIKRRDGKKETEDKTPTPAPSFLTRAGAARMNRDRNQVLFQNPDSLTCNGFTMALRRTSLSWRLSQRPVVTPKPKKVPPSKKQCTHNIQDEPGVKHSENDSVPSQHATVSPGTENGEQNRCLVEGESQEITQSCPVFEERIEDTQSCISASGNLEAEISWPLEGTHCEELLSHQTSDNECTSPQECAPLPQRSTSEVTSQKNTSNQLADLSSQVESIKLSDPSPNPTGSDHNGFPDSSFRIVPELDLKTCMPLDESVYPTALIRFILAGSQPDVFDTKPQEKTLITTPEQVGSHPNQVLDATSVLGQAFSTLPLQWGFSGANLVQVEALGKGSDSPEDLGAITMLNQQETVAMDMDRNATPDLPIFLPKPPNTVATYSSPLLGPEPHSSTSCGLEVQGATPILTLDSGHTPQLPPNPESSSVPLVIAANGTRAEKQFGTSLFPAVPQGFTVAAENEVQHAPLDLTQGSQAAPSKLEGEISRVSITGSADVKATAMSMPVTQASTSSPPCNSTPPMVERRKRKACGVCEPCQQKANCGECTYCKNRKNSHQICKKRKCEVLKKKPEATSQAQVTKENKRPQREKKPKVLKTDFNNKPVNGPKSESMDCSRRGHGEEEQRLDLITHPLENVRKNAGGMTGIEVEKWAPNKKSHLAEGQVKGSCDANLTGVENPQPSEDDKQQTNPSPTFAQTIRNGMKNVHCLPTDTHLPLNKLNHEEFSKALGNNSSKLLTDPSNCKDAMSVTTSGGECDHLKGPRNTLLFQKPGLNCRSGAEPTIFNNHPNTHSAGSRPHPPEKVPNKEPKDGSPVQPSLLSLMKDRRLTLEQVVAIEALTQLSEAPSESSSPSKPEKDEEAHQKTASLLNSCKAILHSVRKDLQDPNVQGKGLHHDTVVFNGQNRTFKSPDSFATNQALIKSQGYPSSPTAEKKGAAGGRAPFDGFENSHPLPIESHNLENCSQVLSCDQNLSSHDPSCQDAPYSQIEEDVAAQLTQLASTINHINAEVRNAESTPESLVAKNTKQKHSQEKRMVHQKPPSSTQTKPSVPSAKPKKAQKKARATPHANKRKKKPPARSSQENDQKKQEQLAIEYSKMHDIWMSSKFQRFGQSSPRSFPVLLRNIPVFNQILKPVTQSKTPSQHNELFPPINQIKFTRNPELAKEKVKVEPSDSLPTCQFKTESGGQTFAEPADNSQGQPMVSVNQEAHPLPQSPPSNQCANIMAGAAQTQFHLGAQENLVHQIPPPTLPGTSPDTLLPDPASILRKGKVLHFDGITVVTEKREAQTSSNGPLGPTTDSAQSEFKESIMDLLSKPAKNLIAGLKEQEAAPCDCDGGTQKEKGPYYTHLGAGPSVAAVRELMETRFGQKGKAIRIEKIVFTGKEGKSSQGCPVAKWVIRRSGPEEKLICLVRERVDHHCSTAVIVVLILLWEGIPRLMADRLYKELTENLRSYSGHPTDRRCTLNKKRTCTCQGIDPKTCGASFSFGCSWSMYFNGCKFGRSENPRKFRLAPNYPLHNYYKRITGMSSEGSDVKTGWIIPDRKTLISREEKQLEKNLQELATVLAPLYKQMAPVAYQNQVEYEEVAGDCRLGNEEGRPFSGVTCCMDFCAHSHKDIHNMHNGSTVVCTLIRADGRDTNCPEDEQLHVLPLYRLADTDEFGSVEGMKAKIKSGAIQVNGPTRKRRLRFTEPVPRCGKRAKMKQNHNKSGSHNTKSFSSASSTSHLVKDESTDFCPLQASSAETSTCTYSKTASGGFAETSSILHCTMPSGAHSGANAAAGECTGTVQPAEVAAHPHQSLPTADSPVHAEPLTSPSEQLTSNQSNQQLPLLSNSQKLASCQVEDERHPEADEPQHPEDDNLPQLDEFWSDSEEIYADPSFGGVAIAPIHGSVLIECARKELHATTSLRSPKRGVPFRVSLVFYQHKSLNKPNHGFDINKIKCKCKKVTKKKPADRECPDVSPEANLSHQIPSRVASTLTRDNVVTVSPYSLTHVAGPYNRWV

Target: mTET1 (Mus musculus, UniProt Q3URK3)
Conditions: cited from earlier work

Succinate [Molecule 31]
IC50: 540 µM
